Experimental data published in patent US4845077A, “Method of inducing ovulation” (Serono Laboratories, Inc., priority 1987, dated 1989).

Tests used:
[1] = test system: normal cynomolgus monkeys; assay: GnRH antagonist plus fixed gonadotropin regimen (FSH/LH or FSH only) followed by hCG; format: in vivo
Protocol: The GnRH antagonist (Ac-pClPhe^1,pClPhe^2, DTrp^3, DArg^6, DAla^10)GnRH HCl, was administered to 20 normal cynomolgus monkeys (1.0 mg/kg/day) in order to eliminate endogeneous pituitary FSH and LH secretion. Superimposed on this treatment, 15 of the monkeys were administered a human menopausal gonadotropin preparation containing approximately equal amounts of FSH and LH and five monkeys were administered FSH only to stimulate ovarian follicular maturation. Control groups received either the combined exogeneous gonadotropins or FSH only (15 monkeys each group). All of the groups received a fixed regimen of gonadotropin therapy for seven consecutive days (25 IU/day/im, cycle days 3-9) followed by hCG (1,000 IU/im) on cycle day 10.

[2] = test system: adult female cynomolgus monkeys; format: in vivo, Macaca fascicularis
Protocol: Eleven adult female cynomolgus monkeys (Macaca fascicularis) were selected for study based on records indicating regular menstrual cycles. The average body weight for these primates was 4.79±0.86 kg.
Counting the first day of spontaneous menses as cycle day 1, the monkeys were treated with 25 IU (im) of FSH twice daily according to three regimens. Group 1 received injections on cycle days 1-11; Group 2 on cycle days 1-4 and Group 3 on days 8-11. For all monkeys, laparoscopies were performed under ketamine anesthesia, beginning on the first day of FSH treatment and serially every 3 to 5 days thereafter to assess the status of ovarian follicular development. In order to test whether these FSH driven follicles could be ovulated, monkeys in Group 1 only received 1,000 IU (im) of hCG on day 12 and retrograde lavage of the fallopian tubes for egg collection 72 hours after hCG treatment was employed to determine whether ovulation had acutally occurred. Daily femoral blood samples were collected beginning on day 1 of the cycle and continued for 40 days or until menstruation. Sera were frozen until radioimmunoassay of LH, FSH, 17β--estradiol and progesterone.

[3] = Group 1, mid-luteal phase, after hCG
[4] = Group 3: FSH on cycle days 8-11

follicle stimulating hormone [FSH]
maturation of ovarian follicles ([1]; FSH 25 IU/day im cycle days 3-9 with GnRH antagonist 1.0 mg/kg/day, in the absence of LH): promoted maturation of multiple ovarian follicles | ovulation of the follicles by hCG ([1]; FSH with GnRH antagonist, hCG 1,000 IU im on cycle day 10): ovulated by hCG with subsequent recovery of two-cell embryos | monkeys in which ovulation was achieved ([1]; control group, FSH only 25 IU/day im cycle days 3-9, hCG on day 10, no GnRH antagonist): 9 of the 15 | serum estradiol ([2]; Group 1: 25 IU im twice daily, cycle days 1-11, sustained elevation): about 500 pg/ml | prominent follicles (multiple follicular growth) ([2]; Group 1, by cycle day 8-11): 10-15 | mean serum estradiol [2, 3]: > 400 pg/mL | mean serum progesterone [2, 3]: exceed 15 ng/ml | serum LH and progesterone ([2]; Group 1, prior to hCG treatment): remained at basal levels | egg recovery from the fallopian tubes (ovulation) ([2]; Group 1, retrograde lavage 72 hours after hCG): recovery of one or more eggs from the fallopian tubes of each female | ovulatory stigma observed on each ovary ([2]; Group 1, within 48 hours after hCG 1,000 IU im on day 12): 1-3 | LH surges ([2]; Group 2: FSH on cycle days 1-4): no LH surges were observed | ovulatory stigma ([2]; Group 2, after withdrawal of FSH, no hCG): No ovulatory stigma appeared | laparoscopy appearance of the ovaries ([2]; Group 2, cycle day 5): both ovaries were enlarged with multiple vasicular follicles | mean peak serum estradiol ([2]; Group 2, cycle days 4-6): exceeding 300 pg/ml | onset of the luteal phase in the subsequent spontaneous ovulatory cycle ([2]; Group 2, serum progesterone basal until then): 24 ± 2.4 days | mean serum estradiol concentrations [2, 4]: increased abruptly | monkeys with a spontaneous LH surge [2, 4]: one of four | circulating FSH levels after discontinuation ([2]; cynomolgus monkey, in vivo): below the limits of detection
